Earlier results, collected in paper PMC11390321 (Cancer chemotherapy and pharmacology, 2024).

Settings: tumor-bearing mice, orally administered; cited from earlier work

## C[C@@H]1COCCN1c1cc(-c2ccnn2C)c2ccnc(-c3ccn[nH]3)c2n1 [elimusertib]
  bone marrow exposure relative to plasma: 2.65 fold
